How the values were obtained:
human PAC1 = target: T1, human PAC1 (Homo sapiens, UniProt P41586); test: Filter binding assay, membranes from cells transiently transfected with human PAC1, 125I-labeled PACAP-27 tracer; settings: read-out: Human receptor binding (IC50; nM) PAC1
T1 construct: expressed in transfected cells
T1 sequence (P41586 21-468): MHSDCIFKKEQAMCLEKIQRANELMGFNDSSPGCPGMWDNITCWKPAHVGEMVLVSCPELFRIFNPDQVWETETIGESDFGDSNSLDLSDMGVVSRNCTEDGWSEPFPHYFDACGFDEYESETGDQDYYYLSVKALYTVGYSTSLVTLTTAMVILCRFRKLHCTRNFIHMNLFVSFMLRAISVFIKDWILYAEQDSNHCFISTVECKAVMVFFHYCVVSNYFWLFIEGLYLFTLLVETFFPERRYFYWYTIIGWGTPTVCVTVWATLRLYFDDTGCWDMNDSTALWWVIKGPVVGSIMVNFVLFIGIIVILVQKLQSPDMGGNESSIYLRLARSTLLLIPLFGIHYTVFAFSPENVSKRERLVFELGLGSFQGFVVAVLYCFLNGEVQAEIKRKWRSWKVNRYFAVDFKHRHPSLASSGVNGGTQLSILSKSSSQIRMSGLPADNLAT
Experimental: For this assay, the solutions and equipment include:
Presoak solution: 0.5% Polyethyleneamine in Aqua dest.
Buffer for flushing filter plates: 25 mM HEPES pH 7.4
Blocking buffer: 25 mM HEPES pH 7.4; 0.2% protease free BSA
Assay buffer: 25 mM HEPES pH 7.4; 0.5% protease free BSA
Dilution and assay plate: PS-Microplate, U form
Filtration Plate Multiscreen FB Opaque Plate; […] Type B Glasfiber filter
In order to prepare the filter plates, the presoak solution is aspirated by vacuum filtration. The plates are flushed twice with 200 μL flush buffer. 200 μL blocking buffer is added to the filter plate. The filter plate is then incubated with 200 μL presoak solution for 1 hour at room temperature.
The assay plate is filled with […] (2.5 μg) suspended in assay buffer, 25 μL compound (agonist) in assay buffer, and 25 μL tracer (about 40000 cpm) in assay buffer. The filled plate is incubated for 1 hour with shaking.
The transfer from assay plate to filter plate is conducted. The blocking buffer is aspirated by vacuum filtration and washed two times with flush buffer. 90 μL is transferred from the assay plate to the filter plate. The 90 μL transferred from assay plate is aspirated and washed three times with 200 μL flush buffer. The plastic support is removed. It is dried for 1 hour at 60° C. 30 μL Microscint is added. The count is performed. […]

human VPAC2 = target: T2, human VPAC2 (Homo sapiens, UniProt P41587); test: Alpha screen in vitro potency: human VPAC2-R mediated cAMP generation; format: cell-based
T2 construct: expressed in transfected cells
T2 sequence (P41587 24-438): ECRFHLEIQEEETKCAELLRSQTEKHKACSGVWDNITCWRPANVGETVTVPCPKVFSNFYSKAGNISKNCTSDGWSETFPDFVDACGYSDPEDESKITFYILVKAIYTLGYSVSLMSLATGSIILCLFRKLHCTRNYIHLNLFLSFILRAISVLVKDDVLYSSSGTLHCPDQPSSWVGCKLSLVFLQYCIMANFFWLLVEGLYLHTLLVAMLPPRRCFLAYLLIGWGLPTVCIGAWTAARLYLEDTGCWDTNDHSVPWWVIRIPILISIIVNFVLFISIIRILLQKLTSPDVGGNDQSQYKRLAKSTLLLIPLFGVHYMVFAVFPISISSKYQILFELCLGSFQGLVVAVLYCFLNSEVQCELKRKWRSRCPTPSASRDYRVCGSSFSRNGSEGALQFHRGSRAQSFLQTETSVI

HSDAYFTDNYTRLRKQMAVKKYLNSILN [VIP, reference compound]
IC50 (human PAC1): > 1000 nM | EC50 (human VPAC2): 1 nM

From patent US20080146500A1, “Selective Vpac2 Receptor Peptide Agonists” (priority 2004, published 2008)
